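96-well plates; 48 h exposure; 5 concentrations. Endpoints by linear interpolation between flanking doses. Not reached: highest tested concentration assigned. GI50 = concentration required for 50% inhibition of growth. TGI: total growth inhibition.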
Tests used:
Experiment in all cases: DTP human tumour cell line panel, 48 h
SK-MEL-5 melanoma = system: SK-MEL-5 melanoma
HOP-62 NSCLC = system: HOP-62 NSCLC
SK-MEL-28 melanoma = system: SK-MEL-28 melanoma
ACHN renal = system: ACHN renal
RPMI-8226 leukemia = system: RPMI-8226 leukemia
UO-31 renal = system: UO-31 renal
SR leukemia = system: SR leukemia
PC-3 prostate = system: PC-3 prostate
A498 renal = system: A498 renal
T-47D breast = system: T-47D breast
KM12 colon = system: KM12 colon
MDA-MB-231 breast = system: MDA-MB-231 breast
EKVX NSCLC = system: EKVX NSCLC
MALME-3M melanoma = system: MALME-3M melanoma
U251 CNS = system: U251 CNS
HS 578T breast = system: HS 578T breast
SF-268 CNS = system: SF-268 CNS
LOX IMVI melanoma = system: LOX IMVI melanoma
IGROV1 ovarian = system: IGROV1 ovarian
SN12C renal = system: SN12C renal
SNB-75 CNS = system: SNB-75 CNS
MDA-N = system: MDA-N
HL-60(TB) leukemia = system: HL-60(TB) leukemia
HCT-15 colon = system: HCT-15 colon
COLO 205 colon = system: COLO 205 colon
TK-10 renal = system: TK-10 renal
OVCAR-4 ovarian = system: OVCAR-4 ovarian
NCI/ADR-RES ovarian = system: NCI/ADR-RES ovarian
UACC-62 melanoma = system: UACC-62 melanoma
CCRF-CEM leukemia = system: CCRF-CEM leukemia
OVCAR-3 ovarian = system: OVCAR-3 ovarian
M14 melanoma = system: M14 melanoma
SF-295 CNS = system: SF-295 CNS
HCT-116 colon = system: HCT-116 colon
SNB-19 CNS = system: SNB-19 CNS
SW-620 colon = system: SW-620 colon
UACC-257 melanoma = system: UACC-257 melanoma
A549 NSCLC = system: A549 NSCLC
MDA-MB-435 = system: MDA-MB-435
CAKI-1 renal = system: CAKI-1 renal
786-0 renal = system: 786-0 renal
HT29 colon = system: HT29 colon
NCI-H522 lung = system: NCI-H522 lung
SK-OV-3 ovarian = system: SK-OV-3 ovarian
SF-539 CNS = system: SF-539 CNS
MOLT-4 leukemia = system: MOLT-4 leukemia
NCI-H226 lung = system: NCI-H226 lung
BT-549 breast = system: BT-549 breast
HCC-2998 colon = system: HCC-2998 colon
MCF7 breast = system: MCF7 breast
NCI-H460 lung = system: NCI-H460 lung
RXF 393 renal = system: RXF 393 renal
NCI-H23 lung = system: NCI-H23 lung
DU-145 prostate = system: DU-145 prostate
OVCAR-8 ovarian = system: OVCAR-8 ovarian
OVCAR-5 ovarian = system: OVCAR-5 ovarian

In the case of `O=[N+]([O-])C(Cl)(Cl)/C=C(\Cl)C(Cl)(Cl)[N+](=O)[O-]`, the GI50 (SK-MEL-5 melanoma) is reported as 5.24 µM, the TGI (SK-MEL-5 melanoma) is reported as 14.1 µM and the GI50 (HOP-62 NSCLC) is reported as 21 µM. It also gave a TGI (HOP-62 NSCLC) of 40.4 µM, a GI50 (SK-MEL-28 melanoma) of 1120 nM and a TGI (SK-MEL-28 melanoma) of 5.21 µM. It also gave a GI50 (ACHN renal) of 5.96 µM, a TGI (ACHN renal) of 12.1 µM and a GI50 (RPMI-8226 leukemia) of 8.23 µM. The GI50 (UO-31 renal) was 11.3 µM, the TGI (UO-31 renal) was 24.6 µM and the GI50 (SR leukemia) was 208 nM. For the same compound, the TGI (SR leukemia) was 2810 nM, the GI50 (PC-3 prostate) was 2860 nM and the TGI (PC-3 prostate) was 8.35 µM. For the same compound, the GI50 (A498 renal) was 14.5 µM, the TGI (A498 renal) was 28.9 µM and the GI50 (T-47D breast) was 380 nM. For the same compound, the TGI (T-47D breast) was 2140 nM, the GI50 (KM12 colon) was 7.01 µM and the TGI (KM12 colon) was 24.9 µM. It also gave a GI50 (MDA-MB-231 breast) of 3.03 µM, a TGI (MDA-MB-231 breast) of 14.4 µM and a GI50 (EKVX NSCLC) of 19.9 µM. The TGI (EKVX NSCLC) was 43.4 µM, the GI50 (MALME-3M melanoma) was 1780 nM and the TGI (MALME-3M melanoma) was 3.52 µM. For the same compound, the GI50 (U251 CNS) was 15.3 µM, the TGI (U251 CNS) was 31.5 µM and the GI50 (HS 578T breast) was 9.23 µM. It also gave a TGI (HS 578T breast) of 45.8 µM, a GI50 (SF-268 CNS) of 3.02 µM and a TGI (SF-268 CNS) of 19.5 µM. The GI50 (LOX IMVI melanoma) was 32.2 nM, the TGI (LOX IMVI melanoma) was 248 nM and the GI50 (IGROV1 ovarian) was 5.15 µM. The TGI (IGROV1 ovarian) was 22.9 µM, the GI50 (SN12C renal) was 1500 nM and the TGI (SN12C renal) was 4.13 µM. It also gave a GI50 (SNB-75 CNS) of 3.31 µM, a TGI (SNB-75 CNS) of 9.78 µM and a GI50 (MDA-N) of 1200 nM. For the same compound, the TGI (MDA-N) was 2620 nM, the GI50 (HL-60(TB) leukemia) was 101 nM and the TGI (HL-60(TB) leukemia) was 919 nM. For the same compound, the GI50 (HCT-15 colon) was 241 nM, the TGI (HCT-15 colon) was 1710 nM and the GI50 (COLO 205 colon) was 1250 nM. The TGI (COLO 205 colon) was 3.35 µM, the GI50 (TK-10 renal) was 1130 nM and the TGI (TK-10 renal) was 3.33 µM. It also gave a GI50 (OVCAR-4 ovarian) of 23.1 µM, a TGI (OVCAR-4 ovarian) of 51.7 µM and a GI50 (NCI/ADR-RES ovarian) of 2690 nM. It also gave a TGI (NCI/ADR-RES ovarian) of 12 µM, a GI50 (UACC-62 melanoma) of 1990 nM and a TGI (UACC-62 melanoma) of 8.69 µM. The GI50 (CCRF-CEM leukemia) was 11.8 nM, the TGI (CCRF-CEM leukemia) was 236 nM and the GI50 (OVCAR-3 ovarian) was 1510 nM. The TGI (OVCAR-3 ovarian) was 3.1 µM, the GI50 (M14 melanoma) was 196 nM and the TGI (M14 melanoma) was 1620 nM. It also gave a GI50 (SF-295 CNS) of 13.2 µM, a TGI (SF-295 CNS) of 28.2 µM and a GI50 (HCT-116 colon) of 772 nM. The TGI (HCT-116 colon) was 3.05 µM, the GI50 (SNB-19 CNS) was 16.1 µM and the TGI (SNB-19 CNS) was 34.1 µM. It also gave a GI50 (SW-620 colon) of 149 nM, a TGI (SW-620 colon) of 1580 nM and a GI50 (UACC-257 melanoma) of 690 nM. For the same compound, the TGI (UACC-257 melanoma) was 2810 nM, the GI50 (A549 NSCLC) was 15 µM and the TGI (A549 NSCLC) was 32.3 µM. The GI50 (MDA-MB-435) was 2030 nM, the TGI (MDA-MB-435) was 11.3 µM and the GI50 (CAKI-1 renal) was 835 nM. It also gave a TGI (CAKI-1 renal) of 4.52 µM, a GI50 (786-0 renal) of 1810 nM and a TGI (786-0 renal) of 3.37 µM. It also gave a GI50 (HT29 colon) of 284 nM, a TGI (HT29 colon) of 1900 nM and a TGI (NCI-H522 lung) of 84.8 nM. The GI50 (SK-OV-3 ovarian) was 14.7 µM, the TGI (SK-OV-3 ovarian) was 27.9 µM and the GI50 (SF-539 CNS) was 6.11 µM. For the same compound, the TGI (SF-539 CNS) was 18.8 µM, the GI50 (MOLT-4 leukemia) was 4.91 µM and the TGI (MOLT-4 leukemia) was 24.7 µM. It also gave a GI50 (NCI-H226 lung) of 18.6 µM, a TGI (NCI-H226 lung) of 43.9 µM and a GI50 (BT-549 breast) of 1940 nM. For the same compound, the TGI (BT-549 breast) was 5.94 µM, the GI50 (HCC-2998 colon) was 17.8 µM and the TGI (HCC-2998 colon) was 45.7 µM. For the same compound, the GI50 (MCF7 breast) was 2020 nM, the TGI (MCF7 breast) was 5.16 µM and the GI50 (NCI-H460 lung) was 5.46 µM. It also gave a TGI (NCI-H460 lung) of 20.5 µM, a GI50 (RXF 393 renal) of 547 nM and a TGI (RXF 393 renal) of 2140 nM. The GI50 (NCI-H23 lung) was 1060 nM, the TGI (NCI-H23 lung) was 3.38 µM and the GI50 (DU-145 prostate) was 12.7 µM. For the same compound, the TGI (DU-145 prostate) was 31.1 µM, the GI50 (OVCAR-8 ovarian) was 2020 nM and the TGI (OVCAR-8 ovarian) was 8.46 µM. For the same compound, the GI50 (OVCAR-5 ovarian) was 21.7 µM and the TGI (OVCAR-5 ovarian) was 38.8 µM.

From PubChem BioAssay (NCI)
